System: 4T1 orthotopic tumor-bearing BALB/c mice
Conditions: mouse, in vivo; for biodistribution, Blood / biodistribution, Bone / biodistribution, Brain / biodistribution, Heart / biodistribution, Kidneys / biodistribution, L. intestine / biodistribution, Liver / biodistribution, Lungs / biodistribution, Muscle / biodistribution, Pancreas / biodistribution, S. intestine / biodistribution, Skin / biodistribution, Spleen / biodistribution, Stomach / biodistribution, Tumor (4T1 tumoral uptake): iv, 4 h
Method: 4T1 orthotopic BALB/c mouse model. The cells were removed from the flasks, concentrated, and resuspended in minimal media for cell counting. The cells were then diluted to contain approximately 1 million cells in 30 μL of media (for orthotopic allografts). Following an MSKCC Institutional Animal Care and Use Committee approved protocol, 8-10 week old BALB/c mice (Charles River Laboratories, Wilmington, MA) were surgically implanted with one million 4T1 cancer cells into the first or the last mammary fat pad of the right side of the animal using aseptic surgical techniques and sterile staple closures while the mice were under anesthetic. Additionally, mice were given injections of meloxicam (24 h pain killer) in the scruff and bupivacaine intradermally prior to surgical incisions. One day post surgery, the mice were again given meloxicam and checked to ensure that the closure was healing. Two and three days post surgery, the mice were checked to ensure that the animals were healthy and recovering well from the surgery. Five to seven days post surgery, the staples were removed. Five to nine days post surgery, the mice were injected with 50-75 μCi (0.9-0.4 nmol) of the respective radiopharmaceutical for in vivo biodistribution or 500-600 μCi (9-11 nmol) for in vivo imaging. The mice receiving ^64Cu-NOTA-pHLIP were sacrificed at 1, 2, 4, 12, 24, 36, and 48 h; the mice receiving [^18F]—AlF-NOTA-pHLIP were sacrificed at 0.5, 1, 2, 4, 6 and 8 h. The 4T1 tumors in this study were purposely used 5-9 days after inoculation to ensure lower tumoral pH. Animal models. Animal studies were conducted according to MSKCC IACUC-approved animal protocol. 4T1 (orthotopic breast cancer allografts of 1×10^6 cells surgically implanted in the mammary fat pad) and B16-F10 (orthotopic melanoma allografts of 1×10^5 cells injected intradermally on the shoulder) tumors were orthotopically inoculated in media in female BALB/c and C57Bl/6 mice (Charles River Laboratories (CRL)), respectively. Additionally, PC3 (3×10^6 cells) or LNCaP (3-6×10^6 cells) tumors were subcutaneously xenografted on the shoulder of athymic nude male mice (CRL). Mice were used once tumor volumes were approximately 90-300 mm^3. In vivo animal PET imaging and biodistribution. Mice were injected with radiolabeled NOTA-pHLIP derivatives i.v. (500-700 μCi/mouse for PET or SPECT imaging studies and 25-100 μCi/mouse for biodistribution studies). All injections were less than 200 μL with <10% EtOH in sterile PBS. PET images were obtained with the mice under anesthesia in an Inveon PET-CT or microPET Focus 120 (Siemens) at 0.5-48 h p.i. All images were analyzed using ASIPro VM (Concorde Microsystems). SPECT images were obtained with the mice under anesthesia in a NanoSPECT/CT Plus at 4-24 h p.i. All SPECT images were reconstructed using HiSPECT and analyzed using InVivoScope. Dissections for ex vivo biodistribution were performed on mice after CO2 asphyxiation or cervical dislocation while anesthetized at reported time points. Weight of the syringe prior to injection and after injection was used to determine the mass of injectate. Activity of the syringe prior to injection and after injection was used to determine the percent of injectate administered. The mass injected was corrected by the percent of radioactivity injected. Four to five aliquots (10 μL) were weighed and counted as internal standards for each study. All of the collected organs were counted using an automatic gamma counter (Wizard 3″, PerkinElmer, Waltham, MA). The total injected dose was found as the mass injected dose×fraction radioactivity injected×internal standard average counts/g. The percent injected dose (% ID) was determined as the counts for the tissue×100/total injected dose. The % ID/g was calculated as the % ID/tissue weight. The average and standard deviation of the % ID and % ID/g was determined using normal methods (n−1) for each set of mice.

| SMILES | kidneys-to-large intestine ratio | biodistribution, Blood [% ID/g] | biodistribution, Bone [% ID/g] | biodistribution, Brain [% ID/g] | biodistribution, Heart [% ID/g] | biodistribution, Kidneys [% ID/g] | biodistribution, L. intestine [% ID/g] | biodistribution, Liver [% ID/g] | biodistribution, Lungs [% ID/g] | biodistribution, Muscle [% ID/g] | biodistribution, Pancreas [% ID/g] | biodistribution, S. intestine [% ID/g] | biodistribution, Skin [% ID/g] | biodistribution, Spleen [% ID/g] | biodistribution, Stomach [% ID/g] | biodistribution, Tumor (4T1 tumoral uptake) [% ID/g] |
| --- | --- | --- | --- | --- | --- | --- | --- | --- | --- | --- | --- | --- | --- | --- | --- | --- |
| CC[C@@H](C)[C@@H](NC(=O)[C@H]1CCCN1C(=O)[C@@H](CC(N)=O)NC(=O)[C@@H](CCC(N)=O)NC(=O)[C@@H](CCC(=O)O)NC(=O)[C@@H](CS)NC(=O)[C@@H](C)NC(=S)Nc1ccc(CC2CN(CC(=O)O)CCN(CC(=O)O)CCN2CC(=O)O)cc1)C(=O)N[C@H](Cc1ccc(O)cc1)C(=O)N[C@H](Cc1c[nH]c2ccccc12)C(=O)N[C@H](C)C(=O)N[C@H](CCCNC(=N)N)C(=O)N[C@H](Cc1ccc(O)cc1)C(=O)N[C@H](C)C(=O)N[C@H](CC(=O)O)C(=O)N[C@H](Cc1c[nH]c2ccccc12)C(=O)N[C@H](CC(C)C)C(=O)N[C@H](Cc1ccccc1)C(=O)N[C@@H](C(=O)N[C@@H](C(=O)N1CCC[C@@H]1C(=O)N[C@H](CC(C)C)C(=O)N[C@H](CC(C)C)C(=O)N[C@H](CC(C)C)C(=O)N[C@H](CC(C)C)C(=O)N[C@H](CC(=O)O)C(=O)N[C@H](CC(C)C)C(=O)N[C@H](C)C(=O)N[C@H](CC(C)C)C(=O)N[C@H](CC(C)C)C(=O)N[C@@H](C(=O)N[C@H](CC(=O)O)C(=O)N[C@H](C)C(=O)N[C@H](CC(=O)O)C(=O)N[C@H](CCC(=O)O)C(=O)NCC(=O)N[C@@H](C(=O)O)[C@H](C)O)C(C)C)[C@H](C)O)[C@H](C)O (single isomer, unassigned) [[^18F]—AlF-NOTA-WT] | 0.42±0.03 | 1.978 ± 0.192 | 0.671 ± 0.305 | 0.100 ± 0.015 | 0.66 ± 0.12 | 8.550 ± 1.138 | 24.06 ± 2.85 | 0.973 ± 0.213 | 2.049 ± 0.211 | 0.283 ± 0.041 | 0.324 ± 0.059 | 0.820 ± 0.245 | 1.032 ± 0.133 | 0.434 ± 0.058 | 0.518 ± 0.152 | 1.005 ± 0.232 |
| CC[C@@H](C)[C@@H](NC(=O)[C@H]1CCCN1C(=O)[C@@H](CC(N)=O)NC(=O)[C@@H](CCC(N)=O)NC(=O)[C@@H](CCC(=O)O)NC(=O)[C@@H](CS)NC(=O)[C@@H](C)NC(=S)Nc1ccc(CC2CN(CC(=O)O)CCN(CC(=O)O)CCN2CC(=O)O)cc1)C(=O)N[C@H](Cc1ccc(O)cc1)C(=O)N[C@H](Cc1c[nH]c2ccccc12)C(=O)N[C@H](C)C(=O)N[C@H](CCCNC(=N)N)C(=O)N[C@H](Cc1ccc(O)cc1)C(=O)N[C@H](C)C(=O)N[C@H](CC(=O)O)C(=O)N[C@H](Cc1c[nH]c2ccccc12)C(=O)N[C@H](CC(C)C)C(=O)N[C@H](Cc1ccccc1)C(=O)N[C@@H](C(=O)N[C@@H](C(=O)N1CCC[C@@H]1C(=O)N[C@H](CC(C)C)C(=O)N[C@H](CC(C)C)C(=O)N[C@H](CC(C)C)C(=O)N[C@H](CC(C)C)C(=O)N[C@H](CC(=O)O)C(=O)N[C@H](CC(C)C)C(=O)N[C@H](C)C(=O)N[C@H](CC(C)C)C(=O)N[C@H](CC(C)C)C(=O)N[C@@H](C(=O)N[C@H](CC(=O)O)C(=O)N[C@H](C)C(=O)N[C@H](CC(=O)O)C(=O)N[C@H](CCC(=O)O)C(=O)NCC(=O)N[C@@H](C(=O)O)[C@H](C)O)C(C)C)[C@H](C)O)[C@H](C)O (single isomer, unassigned) [^64Cu-NOTA-WT, metal not drawn] | 0.35±0.11 | 1.192 ± 0.263 | 0.274 ± 0.051 | 0.054 ± 0.002 | 0.50 ± 0.04 | 6.232 ± 0.613 | 9.96 ± 3.42 | 0.904 ± 0.097 | 1.414 ± 0.083 | 0.166 ± 0.008 | 0.261 ± 0.066 | 0.391 ± 0.082 | 0.715 ± 0.109 | 0.318 ± 0.023 | 0.282 ± 0.080 | 0.679 ± 0.025 |

Source: patent US12551583B2, “Radiolabeled ligands for targeted PET/SPECT imaging and methods of their use” (MEMORIAL SLOAN KETTERING CANCER CENTER, priority 2016, dated 2026)
